Measured values published in publication PMC7150870 (Toxins, 2020).
Marks after values point to notes of the source that are not given here.

How the values were obtained:
[1] = tested on: HepG2, Caco-2, RAW 264.7, and HEK 293T cells; settings: human (HepG2, Caco-2, HEK 293T); mouse (RAW 264.7)
PK15 = settings: cited from earlier work
Caco-2 = settings: cited from earlier work
Caco-2 cells [2] = settings: human (Caco-2), mouse (RAW 264.7)
Caco-2 cells [3] = settings: cited from earlier work

Substance | IC50 [1] | percentage of DNA in comet tail with respect to the negative control (HEK 293T cells) | concentration causing DNA damage in PK15 (PK15) | concentration causing DNA damage in Caco-2 (Caco-2) | transepithelial transport, Apical Medium (Caco-2 cells [2]) | transepithelial transport, Basolateral Medium (Caco-2 cells [2]) | transepithelial transport, Caco-2 Cells (Caco-2 cells [2]) | transepithelial transport, Raw 264.7 Cells (Caco-2 cells [2]) | transepithelial transport, Total (Caco-2 cells [2]) | concentration with significant DNA damage (Caco-2 cells [3])
beauvericin | > 50 nM | no significant DNA damage | 500 nM | 12000 nM | 10.40 ± 3.89^a % | 2.31 ± 0.24^a % | 10.36 ± 0.98^d % | 0.57 ± 0.03^c % | 23.65 ± 3.33^a % | –
enniatin A1 [ENN-A1] | > 50 nM | – | – | – | 9.52 ± 3.02^a % | 13.06 ± 0.45^b % | 2.09 ± 0.28^c % | 0.22 ± 0.03^b % | 24.89 ± 3.24^a % | 3000 nM
enniatin A [ENN-A] | > 50 nM | – | – | – | 15.08 ± 5.18^ab % | 16.18 ± 3.17^b % | 10.76 ± 0.43^d % | 0.29 ± 0.04^b % | 42.31 ± 5.00^a % | 1500 nM
